According to US6936585B2, “Corticotropin releasing factor 2 receptor agonists” (priority 2002, dated 2005):

Tests used:
CRF2R = biological target: T1, CRF2R (Homo sapiens, UniProt Q13324); assay: CRF2R agonist activation (EC50 / Emax), called comparative CRF binding; format: cell-based; details: for Emax: read-out: CRF2R Emax
T1 sequence (Q13324 1-411): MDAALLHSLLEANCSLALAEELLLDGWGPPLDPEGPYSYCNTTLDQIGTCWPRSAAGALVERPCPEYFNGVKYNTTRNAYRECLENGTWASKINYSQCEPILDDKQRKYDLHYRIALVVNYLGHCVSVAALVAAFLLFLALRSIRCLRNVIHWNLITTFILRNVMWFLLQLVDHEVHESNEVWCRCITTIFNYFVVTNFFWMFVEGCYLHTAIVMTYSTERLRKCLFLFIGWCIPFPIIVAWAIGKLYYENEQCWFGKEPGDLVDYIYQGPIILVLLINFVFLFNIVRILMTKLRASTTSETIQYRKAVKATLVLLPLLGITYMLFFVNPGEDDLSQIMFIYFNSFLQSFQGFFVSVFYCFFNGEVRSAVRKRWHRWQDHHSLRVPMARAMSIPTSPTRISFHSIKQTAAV
Summary of the method: (§1)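 Agonism is scored from cAMP rise, assayed in lysates or through CRE-driven reporter expression, after peptide contact with cells bearing human CRF2R or CRF1R, compared against vehicle-treated cells.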

CRF1R = biological target: T2, CRF1R (Homo sapiens, UniProt P34998); assay: CRF1R agonist activation (EC50 / Emax), called comparative CRF binding; format: cell-based; details: for EC50: CRF1R EC50; for Emax: read-out: CRF1R Emax
T2 sequence (P34998 24-415): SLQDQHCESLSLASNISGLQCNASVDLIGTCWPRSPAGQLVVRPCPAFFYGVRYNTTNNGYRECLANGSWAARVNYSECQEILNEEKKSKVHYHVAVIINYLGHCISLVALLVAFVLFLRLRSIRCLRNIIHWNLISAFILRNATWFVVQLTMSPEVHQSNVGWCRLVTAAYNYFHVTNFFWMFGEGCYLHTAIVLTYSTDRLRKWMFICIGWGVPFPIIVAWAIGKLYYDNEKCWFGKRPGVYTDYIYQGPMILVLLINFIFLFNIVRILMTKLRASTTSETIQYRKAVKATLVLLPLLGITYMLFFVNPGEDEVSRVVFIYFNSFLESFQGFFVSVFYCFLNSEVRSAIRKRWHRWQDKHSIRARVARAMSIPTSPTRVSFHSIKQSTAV
Summary of the method: as §1

Row | SMILES | EC50 (CRF2R) [nM] | Emax (CRF2R) [%] | EC50 (CRF1R) [nM] | Emax (CRF1R) [%]
1 | CC[C@H](C)[C@H](NC(=O)[C@@H](NC(=O)[C@H](CC(=O)O)NC(=O)[C@H](CC(C)C)NC(=O)[C@H](CC(C)C)NC(=O)[C@H](CC(C)C)NC(=O)[C@H](C)NC(=O)[C@H](CC(N)=O)NC(=O)[C@H](CC(N)=O)NC(=O)[C@H](C)NC(=O)[C@H](C)NC(=O)[C@H](CCC(N)=O)NC(=O)[C@H](CCC(N)=O)NC(=O)[C@H](CCCCN)NC(=O)[C@H](CCC(=O)O)NC(=O)[C@H](CCCCN)NC(=O)[C@H](CCC(=O)O)NC(=O)[C@H](CCC(N)=O)NC(=O)[C@H](CCCCN)NC(=O)[C@H](CCC(=O)O)NC(=O)[C@@H](NC(=O)[C@H](CCC(=O)O)NC(=O)[C@@H](NC(=O)[C@H](CCSC)NC(=O)[C@H](CCCCN)NC(=O)[C@H](CCCNC(=N)N)NC(=O)[C@H](CC(C)C)NC(=O)[C@H](CC(C)C)NC(=O)[C@H](CCC(N)=O)NC(=O)[C@H](Cc1ccccc1)NC(=O)[C@@H]1CCCN1C(=O)[C@H](CC(C)C)NC(=O)[C@H](CC(=O)O)NC(=O)[C@@H](NC(=O)[C@H](CO)NC(=O)[C@@H](NC(=O)[C@@H]1CCCN1C(=O)[C@@H]1CCCN1C(=O)CNC(=O)[C@@H]1CCC(=O)N1)[C@@H](C)CC)[C@@H](C)CC)[C@@H](C)CC)[C@@H](C)CC)[C@@H](C)O)C(N)=O [compound 251] | 11.8 | 100 | 926 | 80
2 | CC[C@H](C)[C@H](NC(=O)[C@@H](NC(=O)[C@H](CC(=O)O)NC(=O)[C@H](CC(C)C)NC(=O)[C@H](CC(C)C)NC(=O)[C@H](CC(C)C)NC(=O)[C@H](C)NC(=O)[C@H](CC(N)=O)NC(=O)[C@H](CC(N)=O)NC(=O)[C@H](C)NC(=O)[C@H](C)NC(=O)[C@H](CCC(N)=O)NC(=O)[C@H](CCC(N)=O)NC(=O)[C@H](CCCCN)NC(=O)[C@H](CCC(=O)O)NC(=O)[C@H](CCCCN)NC(=O)[C@H](CCC(=O)O)NC(=O)[C@H](CCC(N)=O)NC(=O)[C@H](CCCCN)NC(=O)[C@H](CCC(=O)O)NC(=O)[C@@H](NC(=O)[C@H](CCC(=O)O)NC(=O)[C@@H](NC(=O)[C@H](CCSC)NC(=O)[C@H](CCCCN)NC(=O)[C@H](CCCNC(=N)N)NC(=O)[C@H](CC(C)C)NC(=O)[C@H](CC(C)C)NC(=O)[C@H](Cc1c[nH]cn1)NC(=O)[C@H](Cc1ccccc1)NC(=O)[C@@H]1CCCN1C(=O)[C@H](CC(C)C)NC(=O)[C@H](CC(=O)O)NC(=O)[C@@H](NC(=O)[C@H](CO)NC(=O)[C@@H](NC(=O)[C@@H]1CCCN1C(=O)[C@@H]1CCCN1C(=O)CNC(=O)[C@@H]1CCC(=O)N1)[C@@H](C)CC)[C@@H](C)CC)[C@@H](C)CC)[C@@H](C)CC)[C@@H](C)O)C(N)=O [compound 228] | – | 100 | – | 100
3 | CC[C@H](C)[C@H](NC(=O)[C@H](CCCNC(=N)N)NC(=O)[C@H](C)NC(=O)[C@H](CC(N)=O)NC(=O)[C@@H](NC(=O)[C@@H](NC(=O)[C@H](C)NC(=O)[C@H](CCC(N)=O)NC(=O)[C@H](CCC(N)=O)NC(=O)[C@H](CCCCN)NC(=O)[C@H](CCC(=O)O)NC(=O)[C@H](CCCCN)NC(=O)[C@H](CCC(=O)O)NC(=O)[C@H](CCC(N)=O)NC(=O)[C@H](CCCCN)NC(=O)[C@H](CCC(=O)O)NC(=O)[C@@H](NC(=O)[C@H](CCC(=O)O)NC(=O)[C@@H](NC(=O)[C@H](CCSC)NC(=O)[C@H](CCCCN)NC(=O)[C@H](CCCNC(=N)N)NC(=O)[C@H](CC(C)C)NC(=O)[C@H](CC(C)C)NC(=O)[C@H](CCC(N)=O)NC(=O)[C@H](Cc1ccccc1)NC(=O)[C@@H]1CCCN1C(=O)[C@H](CC(C)C)NC(=O)[C@H](CC(=O)O)NC(=O)[C@@H](NC(=O)[C@H](CO)NC(=O)[C@@H](NC(=O)[C@@H]1CCCN1C(=O)[C@@H]1CCCN1C(=O)CNC(=O)[C@@H]1CCC(=O)N1)[C@@H](C)CC)[C@@H](C)CC)[C@@H](C)CC)[C@@H](C)CC)[C@@H](C)O)[C@@H](C)O)C(=O)N[C@@H](CC(C)C)C(=O)N[C@@H](C)C(=O)N[C@@H](CCCNC(=N)N)C(=O)N[C@H](C(N)=O)C(C)C [compound 148] | – | 51.5 | – | 100
4 | CC[C@H](C)[C@H](NC(=O)[C@H](CCC(=O)O)NC(=O)[C@@H](NC(=O)[C@H](CCSC)NC(=O)[C@H](CCCCN)NC(=O)[C@H](CCCNC(=N)N)NC(=O)[C@H](CC(C)C)NC(=O)[C@H](CC(C)C)NC(=O)[C@H](CCC(N)=O)NC(=O)[C@H](Cc1ccccc1)NC(=O)[C@@H]1CCCN1C(=O)[C@H](CC(C)C)NC(=O)[C@H](CC(=O)O)NC(=O)[C@@H](NC(=O)[C@H](CO)NC(=O)[C@@H](NC(=O)[C@@H]1CCCN1C(=O)[C@@H]1CCCN1C(=O)CNC(=O)[C@@H]1CCC(=O)N1)[C@@H](C)CC)[C@@H](C)CC)[C@@H](C)CC)C(=O)N[C@@H](CCC(=O)O)C(=O)N[C@@H](CCCCN)C(=O)N[C@@H](CCC(N)=O)C(=O)N[C@@H](CCC(=O)O)C(=O)N[C@@H](CCCCN)C(=O)N[C@@H](CCC(=O)O)C(=O)N[C@@H](CCCCN)C(=O)N[C@@H](CCC(N)=O)C(=O)N[C@@H](CCC(N)=O)C(=O)N[C@@H](C)C(=O)N[C@H](C(=O)N[C@H](C(=O)N[C@@H](CC(N)=O)C(=O)N[C@@H](CCCNC(=N)N)C(=O)N[C@@H](CC(C)C)C(=O)N[C@@H](CC(C)C)C(=O)N[C@@H](CC(C)C)C(=O)N[C@@H](C)C(=O)N[C@H](C(=O)N[C@H](C(N)=O)C(C)C)[C@@H](C)O)[C@@H](C)O)[C@@H](C)O [compound 17] | – | 96 | – | 98
5 | CC[C@H](C)[C@H](NC(=O)[C@H](CCCNC(=N)N)NC(=O)[C@H](C)NC(=O)[C@H](CC(C)C)NC(=O)[C@H](CC(C)C)NC(=O)[C@H](CCCNC(=N)N)NC(=O)[C@H](C)NC(=O)[C@H](CC(N)=O)NC(=O)[C@H](CC(N)=O)NC(=O)[C@H](C)NC(=O)[C@H](C)NC(=O)[C@H](CCC(N)=O)NC(=O)[C@H](CCC(N)=O)NC(=O)[C@H](CCCCN)NC(=O)[C@H](CCC(=O)O)NC(=O)[C@H](CCCCN)NC(=O)[C@H](CCC(=O)O)NC(=O)[C@H](CCC(N)=O)NC(=O)[C@H](CCCCN)NC(=O)[C@H](CCC(=O)O)NC(=O)[C@@H](NC(=O)[C@H](CCC(=O)O)NC(=O)[C@@H](NC(=O)[C@@H](NC(=O)[C@H](CCCCN)NC(=O)[C@H](CCCNC(=N)N)NC(=O)[C@H](CC(C)C)NC(=O)[C@H](CC(C)C)NC(=O)[C@H](CCC(N)=O)NC(=O)[C@H](Cc1ccc(O)cc1)NC(=O)[C@@H]1CCCN1C(=O)[C@H](CC(C)C)NC(=O)[C@H](CC(=O)O)NC(=O)[C@@H](NC(=O)[C@H](CO)NC(=O)[C@@H](NC(=O)[C@@H]1CCCN1C(=O)[C@@H]1CCCN1C(=O)CNC(=O)[C@@H]1CCC(=O)N1)[C@@H](C)CC)[C@@H](C)CC)C(C)C)[C@@H](C)CC)[C@@H](C)CC)C(N)=O [compound 286] | 13.5 | 92.5 | ≥ 1000 | 19.2
